From patent US12653894B2, “Degradation of FAK or FAK and ALK by conjugation of FAK and ALK inhibitors with E3 ligase ligands and methods of use” (DANA-FARBER CANCER INSTITUTE, INC., priority 2018, dated 2026)

Chains of the proteins cited; added tags and fusions are not shown. A line that says so, or that is headed by a name, gives the form on record, which may keep a tag or linker.
UniProt Q9UM73, with tags, fused parts or gaps: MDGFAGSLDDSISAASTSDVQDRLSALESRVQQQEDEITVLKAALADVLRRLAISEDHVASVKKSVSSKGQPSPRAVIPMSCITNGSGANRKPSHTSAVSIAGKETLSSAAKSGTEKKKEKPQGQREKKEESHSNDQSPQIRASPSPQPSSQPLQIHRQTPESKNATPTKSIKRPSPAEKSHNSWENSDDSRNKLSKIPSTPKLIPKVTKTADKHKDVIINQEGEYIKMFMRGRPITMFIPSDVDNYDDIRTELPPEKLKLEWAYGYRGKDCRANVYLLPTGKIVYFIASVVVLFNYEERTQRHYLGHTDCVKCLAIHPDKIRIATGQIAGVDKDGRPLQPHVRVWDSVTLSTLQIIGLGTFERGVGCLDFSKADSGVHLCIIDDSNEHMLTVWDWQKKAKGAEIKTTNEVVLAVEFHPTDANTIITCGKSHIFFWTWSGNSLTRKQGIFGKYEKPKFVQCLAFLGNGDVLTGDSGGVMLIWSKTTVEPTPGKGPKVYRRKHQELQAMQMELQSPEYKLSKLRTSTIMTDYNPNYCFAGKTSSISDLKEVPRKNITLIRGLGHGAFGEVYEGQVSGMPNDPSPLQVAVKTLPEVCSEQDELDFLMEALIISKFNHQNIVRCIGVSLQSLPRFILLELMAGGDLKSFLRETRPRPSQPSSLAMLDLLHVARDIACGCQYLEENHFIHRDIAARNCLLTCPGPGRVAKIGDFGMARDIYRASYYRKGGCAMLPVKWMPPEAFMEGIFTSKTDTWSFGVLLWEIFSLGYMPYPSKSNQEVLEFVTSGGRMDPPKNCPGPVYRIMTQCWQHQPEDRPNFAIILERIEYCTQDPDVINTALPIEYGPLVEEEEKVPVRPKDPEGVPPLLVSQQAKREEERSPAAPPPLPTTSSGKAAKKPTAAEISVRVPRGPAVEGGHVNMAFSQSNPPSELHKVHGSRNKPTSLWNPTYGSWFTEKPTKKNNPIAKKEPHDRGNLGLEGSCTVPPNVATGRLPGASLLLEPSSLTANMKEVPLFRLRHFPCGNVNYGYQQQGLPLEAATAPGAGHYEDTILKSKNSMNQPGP

Target: ALK (Homo sapiens, UniProt Q9UM73)
Assay: ALK degradation by immunoblot in H3122 cells
Type: cell-based
Set-up: endogenous in cells; host or cells: H3122; the other entry of the earlier key: EML4 (Q9HC35, Echinoderm microtubule-associated protein-like 4)
Settings: 10 nM to 1000 nM, 16 hours (compound 10) or 24 hours (compounds 1, 9)

Degradation of ALK protein in H3122 cells (in words): do not show degradation of ALK
Structure (SMILES): CNC(=O)c1ccccc1Nc1cc(Nc2ccc(N3CCN(CCCCCCNC(=O)COc4cccc5c4C(=O)N(C4CCC(=O)NC4=O)C5=O)CC3)cc2OC)ncc1C(F)(F)F (stereo not shown) [Compound 1, 2-((2-((4-(4-(6-(2-((2-(2,6-dioxopiperidin-3-yl)-1,3-dioxoisoindolin-4-yl)oxy)acetamido)hexyl)piperazin-1-yl)-2-methoxyphenyl)amino)-5-(trifluoromethyl)pyridin-4-yl)amino)-N-methylbenzamide]
